# System: MRSA (S. aureus) KCCM 40510
# Format: cell-based, Staphylococcus aureus
# Details: CAMHB, 37° C., 18 hours; average of three experiments
# Description: The minimum growth inhibitory concentrations of the antibacterial peptides of the present invention weremeasured, and the results are shown in Table 3 below.
# Specifically, the strains were grown in CAMHB until the midlog phase, and then diluted with PBS buffer to 1× 10^6 cfu/ml to prepare the bacterial solution, and the antibacterial peptide prepared in Example 1above was diluted with CAMHB to 80 µM, 40 µM, 20 µM, 10 µM, 5 µM, 2.5 µM, 1.25 µM and 0.63 µM, and then the bacterial solution was treated with the same volume.
# The results are the average value of three independent experiments.
smiles,measurement,value
"CC[C@H](C)[C@H](NC(=O)CN)C(=O)NCC(=O)N[C@@H](C)C(=O)N[C@H](C(=O)N[C@@H](CC(C)C)C(=O)N[C@@H](CCCCN)C(=O)N[C@H](C(=O)N[C@@H](CC(C)C)C(=O)N[C@H](C(=O)N[C@H](C(=O)NCC(=O)N[C@@H](CC(C)C)C(=O)N1CCC[C@H]1C(=O)N[C@@H](C)C(=O)N[C@@H](CC(C)C)C(=O)N[C@H](C(=O)N[C@@H](CO)C(=O)N[C@@H](Cc1c[nH]c2ccccc12)C(=O)N[C@H](C(=O)N[C@@H](CCCCN)C(=O)N[C@@H](CCCNC(=N)N)C(=O)N[C@@H](CCCCN)C(=O)N[C@@H](CCCNC(=N)N)C(=O)N[C@@H](CCC(N)=O)C(=O)N[C@@H](CCC(N)=O)C(N)=O)[C@@H](C)CC)[C@@H](C)CC)[C@@H](C)O)[C@@H](C)O)C(C)C)C(C)C [Melittin, reference compound]",MIC MRSA (S. aureus) KCCM 40510,1.25 µM

# Reference: patent publication US20230287044A1, “NOVEL ANTIBACTERIAL PEPTIDE AND USE THEREOF” (priority 2020, published 2023)
